Source: patent US20220184072A1 (priority 2019, published 2022)

Protein sequences, listed by entry. Tags and fused reporters are not part of them. Residues count along the entry.
UniProt P14416, 1-414 isoform 2: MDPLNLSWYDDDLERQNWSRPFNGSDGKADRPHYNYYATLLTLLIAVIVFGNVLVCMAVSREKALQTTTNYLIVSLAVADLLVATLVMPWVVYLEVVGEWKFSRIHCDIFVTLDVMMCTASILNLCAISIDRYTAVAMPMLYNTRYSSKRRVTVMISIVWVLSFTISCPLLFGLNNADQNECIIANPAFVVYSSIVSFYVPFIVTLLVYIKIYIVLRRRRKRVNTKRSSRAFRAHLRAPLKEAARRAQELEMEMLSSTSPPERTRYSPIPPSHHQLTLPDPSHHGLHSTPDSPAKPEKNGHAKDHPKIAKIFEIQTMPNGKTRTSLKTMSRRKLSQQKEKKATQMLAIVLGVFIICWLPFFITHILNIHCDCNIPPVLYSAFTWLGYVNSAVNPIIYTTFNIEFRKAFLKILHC
UniProt P31645, whole entry: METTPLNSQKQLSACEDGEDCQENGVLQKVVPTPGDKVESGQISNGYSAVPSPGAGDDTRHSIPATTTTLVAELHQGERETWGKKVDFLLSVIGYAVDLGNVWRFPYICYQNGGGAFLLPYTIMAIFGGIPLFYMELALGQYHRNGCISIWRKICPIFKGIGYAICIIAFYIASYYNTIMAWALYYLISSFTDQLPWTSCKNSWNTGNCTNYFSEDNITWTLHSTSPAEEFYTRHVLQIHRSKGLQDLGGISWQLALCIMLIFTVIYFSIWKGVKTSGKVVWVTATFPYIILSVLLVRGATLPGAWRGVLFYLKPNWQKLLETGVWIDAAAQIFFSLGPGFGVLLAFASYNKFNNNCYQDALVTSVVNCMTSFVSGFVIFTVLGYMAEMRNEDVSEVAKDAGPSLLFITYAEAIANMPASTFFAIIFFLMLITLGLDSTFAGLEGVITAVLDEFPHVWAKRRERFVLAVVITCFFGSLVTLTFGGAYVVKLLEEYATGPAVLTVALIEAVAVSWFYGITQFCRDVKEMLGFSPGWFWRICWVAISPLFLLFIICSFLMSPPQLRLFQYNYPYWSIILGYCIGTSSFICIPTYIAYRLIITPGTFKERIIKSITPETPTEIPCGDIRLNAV

How the values were obtained:
D2 = D2 (Homo sapiens, UniProt P14416); assay: Receptor binding, D2; settings: @ 100 nM
SERT = SERT (Homo sapiens, UniProt P31645); assay: Receptor binding, SERT; settings: @ 200 nM

Structure (SMILES)	maximum inhibition (D2) [% @]	maximum inhibition (SERT) [% @]
O=C1CN2c3c(cccc3[C@@H]3CN(CCCOc4ccc(F)c(O)c4)CC[C@@H]32)N1	0	–
O=C1CN2c3c(cccc3[C@@H]3CN(CCCOc4ccc(F)cc4O)CC[C@@H]32)N1	–	5
